The record followed here is ChEMBL document CHEMBL5390287, “Discovery of a Tritiated Radioligand with High Affinity and Selectivity for the Histamine H3 Receptor” (ACS Med Chem Lett, 2023).

The chains behind the UniProt entries cited, without tags or fusion partners. Where a name states a change or a piece, a line headed by the entry shows the natural chain unless it says otherwise.
UniProt Q9Y5N1: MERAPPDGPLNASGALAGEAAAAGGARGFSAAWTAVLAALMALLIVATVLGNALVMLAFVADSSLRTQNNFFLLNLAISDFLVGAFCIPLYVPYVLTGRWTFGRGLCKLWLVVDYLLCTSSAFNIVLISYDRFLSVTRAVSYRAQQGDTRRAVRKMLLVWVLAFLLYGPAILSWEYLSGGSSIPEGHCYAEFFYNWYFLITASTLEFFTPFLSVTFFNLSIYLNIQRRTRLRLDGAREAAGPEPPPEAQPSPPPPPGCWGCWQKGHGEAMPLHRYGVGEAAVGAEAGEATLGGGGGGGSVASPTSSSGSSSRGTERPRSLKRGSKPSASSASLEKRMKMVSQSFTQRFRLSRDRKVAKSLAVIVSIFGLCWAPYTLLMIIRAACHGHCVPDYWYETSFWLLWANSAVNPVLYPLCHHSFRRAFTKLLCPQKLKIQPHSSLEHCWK

In experiment [1] the target is T1, Histamine H3 receptor (Homo sapiens, UniProt Q9Y5N1). The experiment in a line: Displacement of [3H]UR-MN259 from SP-FLAG tagged human histamine H3 receptor expressed in HEK293T cells assessed as inhibition constant incubated for 60 min by scintillation counter analysis. In kind it is cell-based.
Experiment [2] concerns the target T1, Histamine H3 receptor. The experiment in a line: Binding affinity to SP-FLAG tagged human histamine H3 receptor expressed in HEK293T cells using sodium containing Leibovitz's L-15 medium incubated for 60 min by scintillation counter analysis. It counts as cell-based.

By Ki is commonly meant the dissociation constant of the complex between target and ligand, obtained from inhibition or displacement. As for `NC(=NCc1ccc(Cl)cc1)SCCCc1cnc[nH]1` [CLOBENPROPIT], the Ki is 1.45 nM in experiment [1] and 0.347 nM in experiment [2].
